# Results as given in patent US9598447B2, “Phosphorus-substituted quinoxaline-type piperidine compounds and uses thereof” (dated 2017).
# Tests used:
# [1] = molecular target: T1, human opioid receptor-like (ORL-1) (Homo sapiens (Human), UniProt P41146); assay: ORL-1 receptor [35S]GTPγS functional binding assay; conditions: for GTPγS Emax [mean ± SEM] ORL-1: relative to the effect elicited by nociceptin; for EC50: read-out: GTPγS EC50 [mean ± SEM] ORL-1
# [2] = molecular target: T1, human opioid receptor-like (ORL-1); assay: In vitro ORL-1 receptor binding assay ([3H]-nociceptin displacement); conditions: read-out: Ki [Average ± Std Deviation] ORL-1; membranes from recombinant HEK-293 cells
# [3] = molecular target: T2, kappa opioid receptor (Homo sapiens (Human), UniProt P41145); assay: Kappa-opioid receptor [35S]GTPγS functional assay; conditions: read-out: GTPγS EC50 [mean ± SEM] Opioid Receptor Kappa
# [4] = molecular target: delta opioid receptor (Homo sapiens (Human), UniProt P41143); assay: In vitro delta-opioid receptor binding assay ([3H]-Naltrindole displacement); conditions: read-out: Ki [Average ± Std Deviation] Opioid Receptor Delta; recombinant receptor expressed in CHO-K1 cells
# [5] = molecular target: human μ-opioid receptors (Homo sapiens (Human), UniProt P35372); assay: In vitro mu-opioid receptor binding assay ([3H]-diprenorphine displacement); conditions: read-out: Ki [Average ± Std Deviation] Opioid Receptor Mu; membranes expressing human μ-receptors
# [6] = molecular target: human μ-receptors (Homo sapiens (Human), UniProt P35372); assay: Mu-opioid receptor [35S]GTPγS functional assay; conditions: for EC50: read-out: GTPγS EC50 [mean ± SEM] Opioid Receptor Mu; for GTPγS Emax [mean ± SEM] Opioid Receptor Mu: relative to the effect elicited by DAMGO
# [7] = molecular target: T2, kappa opioid receptor; assay: In vitro kappa-opioid receptor binding assay ([3H]-U69,593 displacement); conditions: read-out: Ki [Average ± Std Deviation] Opioid Receptor Kappa; membranes from recombinant HEK-293 cells
compound,measurement,setting,value
O=c1c(P(=O)(O)O)nc2ccccc2n1[C@H]1C[C@H]2CCC[C@@H](C1)N2C1CCCCCCC1,GTPγS Emax [mean ± SEM] ORL-1,[1],130 ± 7%
same,Ki,[2],0.0293 µM
C[C@@H]1C[C@@H]2C[C@H](C1)C[C@@H](N1[C@@H]3CCC[C@H]1C[C@@H](n1c(=O)c(NCCP(=O)(O)O)nc4ccccc41)C3)C2,GTPγS Emax [mean ± SEM] ORL-1,[1],18.5 ± 1.4%
CCOP(=O)(/C=C/c1nc2ccccc2n([C@H]2C[C@H]3CCC[C@@H](C2)N3[C@H]2C[C@@H]3C[C@@H](C)C[C@@H](C3)C2)c1=O)OCC,EC50,[3],> 20 µM
same,EC50,[1],0.00232 µM
same,GTPγS Emax [mean ± SEM] ORL-1,[1],62 ± 5%
same,Ki,[2],0.00262 µM
same,Ki,[4],3.98 µM
same,Ki,[5],0.0298 µM
same,EC50,[6],> 20 µM
same,Ki,[7],0.0025 µM
O=c1c(P(=O)(O)O)nc2ccccc2n1[C@H]1C[C@H]2CCC[C@@H](C1)N2[C@H]1C[C@@H]2CCC[C@@H](C2)C1,GTPγS Emax [mean ± SEM] ORL-1,[1],21 ± 1%
O=c1c(P(=O)(O)O)nc2ccccc2n1[C@H]1C[C@H]2CC[C@@H](C1)N2C12CC3CC(CC1C3)C2,GTPγS Emax [mean ± SEM] ORL-1,[1],81.7 ± 5.8%
O=c1c(NCCP(=O)(O)O)nc2ccccc2n1[C@H]1C[C@H]2CCC[C@@H](C1)N2[C@H]1C[C@@H]2CCC[C@@H](C2)C1,GTPγS Emax [mean ± SEM] ORL-1,[1],11.6 ± 0.6%
C[C@@H]1C[C@@H]2C[C@H](C1)C[C@@H](N1[C@@H]3CCC[C@H]1C[C@@H](n1c(=O)c(/C=C/P(=O)(O)O)nc4ccccc41)C3)C2,EC50,[3],> 20 µM
same,GTPγS Emax [mean ± SEM] ORL-1,[1],33.3 ± 0.8%
same,Ki,[4],5.59 µM
same,EC50,[6],> 20 µM
same,Ki,[7],0.403 µM
CCOP(=O)(OCC)c1nc2ccccc2n([C@H]2C[C@H]3CC[C@@H](C2)N3C23CC4CC(CC2C4)C3)c1=O,EC50,[3],> 20 µM
same,GTPγS Emax [mean ± SEM] ORL-1,[1],61.7 ± 2.0%
same,Ki,[4],> 20 µM
same,EC50,[6],> 20 µM
same,GTPγS Emax [mean ± SEM] Opioid Receptor Mu,[6],−0.33 ± 0.67%
C[C@@H]1C[C@@H]2C[C@H](C1)C[C@@H](N1[C@@H]3CCC[C@H]1C[C@@H](n1c(=O)c(P(=O)(O)O)nc4ccccc41)C3)C2,EC50,[3],> 20 µM
same,GTPγS Emax [mean ± SEM] ORL-1,[1],55.0 ± 1.2%
same,Ki,[5],0.0283 µM
same,EC50,[6],> 20 µM
same,Ki,[7],0.267 µM
C[C@@H]1C[C@@H]2C[C@H](C1)C[C@@H](N1[C@@H]3CCC[C@H]1C[C@@H](n1c(=O)c(CCP(=O)(O)O)nc4ccccc41)C3)C2,EC50,[3],> 20 µM
same,EC50,[1],0.00394 µM
same,GTPγS Emax [mean ± SEM] ORL-1,[1],34.8 ± 1.8%
same,Ki,[4],5.91 µM
same,Ki,[5],0.129 µM
same,EC50,[6],> 20 µM
same,GTPγS Emax [mean ± SEM] Opioid Receptor Mu,[6],0.33 ± 0.67%
same,Ki,[7],0.078 µM
CC1(C)[C@H]2CC[C@@H](CCN3[C@@H]4CCC[C@H]3C[C@@H](n3c(=O)c(P(=O)(O)O)nc5ccccc53)C4)[C@@H]1C2,EC50,[3],> 20 µM
same,EC50,[1],0.015 µM
same,GTPγS Emax [mean ± SEM] ORL-1,[1],40 ± 3%
same,Ki,[2],0.0111 µM
same,Ki,[4],> 20 µM
same,Ki,[5],> 20 µM
same,Ki,[7],0.0437 µM
C[C@@H]1C[C@@H]2C[C@H](C1)C[C@@H](N1[C@@H]3CCC[C@H]1C[C@@H](n1c(=O)c(N4CC=C(P(C)(=O)O)CC4)nc4ccccc41)C3)C2,GTPγS Emax [mean ± SEM] ORL-1,[1],21.7 ± 3.7%
C[C@@H]1C[C@@H]2C[C@H](C1)C[C@@H](N1[C@@H]3CCC[C@H]1C[C@@H](n1c(=O)c(P(=O)(O)OCOC(=O)c4ccccc4)nc4ccccc41)C3)C2,EC50,[3],> 20 µM
same,EC50,[1],0.0138 µM
same,GTPγS Emax [mean ± SEM] ORL-1,[1],34.3 ± 0.7%
same,Ki,[4],5.29 µM
same,Ki,[5],0.396 µM
same,EC50,[6],> 20 µM
same,Ki,[7],0.0379 µM
